Reference: ChEMBL document CHEMBL1156794, “Synthesis and antimicrobial evaluation of amphiphilic neamine derivatives” (J Med Chem, 2010)

Tests used:
Acinetobacter lwoffii = settings: ATCC 17925
Escherichia coli = settings: ATCC 25922

With GENTAMICIN the MIC (Acinetobacter lwoffii) was 0.5 µg/mL and the MIC (Escherichia coli) was < 0.5 µg/mL.
